# Antibody variant affinities, Ab-14 light chain, assay 1

Antigen: PDVDLGDISGINAS, a 14-residue peptide of the SARS-CoV-2 spike HR2 region.

Each scFv is VH, a (GGGGS)3 linker, VL, as in the parent Ab-14, and differs from it in the CDRs of the light chain only.
VH: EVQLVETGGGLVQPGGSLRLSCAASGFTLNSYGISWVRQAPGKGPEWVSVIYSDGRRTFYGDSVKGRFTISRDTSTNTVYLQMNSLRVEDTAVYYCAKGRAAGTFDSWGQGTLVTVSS
VL: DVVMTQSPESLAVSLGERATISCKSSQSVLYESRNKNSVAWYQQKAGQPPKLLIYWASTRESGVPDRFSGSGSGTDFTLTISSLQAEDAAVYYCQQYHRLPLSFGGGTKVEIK

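The parent was found by panning a naive human phage display library on the peptide. Library AAYL50 holds single substitutions and randomly drawn double and triple substitutions in the CDRs. Affinity was read by AlphaSeq, a pooled yeast mating assay with surface-displayed partners. The frequency of each diploid, read from paired DNA barcodes, reflects how well the two displayed proteins bind. Read counts were normalised to the haploid input and turned into Kd by a linear fit to BCL2-family pairs of known affinity, for each replicate. The assay was run in three technical replicates.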

Positions count from residue 1 of the parent VL; S33P puts P in place of S.
Every variant below is changed at S62 of the VL (sequential numbering).
The Kd shown is the geometric mean over detected replicates; a lower Kd is a better binder.
"no signal" marks a missing value. The strain was present, yet no cells mated with the target were sequenced in any replicate, which points to weak or no binding.
Parent in this assay: reference entry 4.4 nM, copy in this library 48 nM.
Nonspecific signal, from three strains lacking the peptide, appeared in 18% of pairings of library AAYL50, centred on 15 µM (5% of these signals below 970 nM); values are not corrected for it.

changes,Kd,replicates with signal
S33P+S62Y+Q96H,93 nM,3/3
S58R+R60P+S62G,8.3 µM,1/3
K24G+N35G+S62L,43 nM,3/3
N37Y+E61N+S62Q,9.5 nM,3/3
N35C+S62N+Q96T,23 µM,1/3
N37I+S62P+Q96W,no signal,0/3
S58G+S62L+P101Y,73 nM,3/3
V39M+S58C+S62Y,3.4 µM,1/3
S26W+S62K+L100N,19 nM,3/3
W56F+S62G+R99E,850 nM,3/3
E61V+S62M+Q95W,4.6 nM,3/3
E61V+S62F+S103F,230 nM,3/3
S62T+L100A+L102V,no signal,0/3
E32G+A40T+S62C,28 µM,1/3
E61A+S62W+Q96P,2.6 µM,1/3
T59V+S62E+L102S,100 µM,1/3
Y31I+S38V+S62H,3.6 µM,1/3
S33R+V39L+S62W,1.1 µM,3/3
L30G+S62N+R99H,no signal,0/3
S33M+S62K+Q96A,no signal,0/3
S33Y+E61N+S62Y,1.7 µM,3/3
S25W+S38H+S62M,60 nM,3/3
Q27I+S62H+H98T,39 nM,3/3
N37K+S62H+R99Y,410 nM,3/3
W56V+S62E+Y97V,77 µM,2/3
Y31K+S33T+S62W,670 µM,1/3
E32C+S62W+H98W,78 nM,3/3
L30E+S62G+L102E,120 µM,3/3
V29A+S62K+P101C,40 nM,3/3
S25I+S58C+S62L,no signal,0/3
L30S+Y31H+S62W,15 nM,3/3
Y31E+S62E+Y97D,3.4 nM,3/3
S28M+N35C+S62E,30 nM,3/3
S62Q+Q96M+P101G,18 nM,3/3
S62A+Y97G,2.3 µM,1/3
Q27R+S62Y,11 nM,3/3
K24F+S33L+S62G,59 µM,1/3
S62M+Y97W,160 µM,1/3
S58N+S62N,170 nM,3/3
S38P+S62A+S103M,370 nM,3/3
A57G+S62N+R99K,4.5 nM,3/3
L30V+S33E+S62R,12 nM,3/3
N35E+S62N+R99M,940 nM,3/3
T59G+S62V+P101T,220 nM,2/3
W56S+A57D+S62Q,3.7 nM,3/3
S26N+N37E+S62R,7.8 µM,1/3
T59I+S62R+L100E,18 µM,2/3
Y31A+S38Y+S62F,970 nM,3/3
S26N+S62V,31 nM,3/3
N35F+S62A+L100C,4.7 µM,1/3
L30K+S62A+Q96T,58 nM,3/3
K36A+S62Q+L102C,3.1 nM,3/3
S26N+S38M+S62Q,550 nM,1/3
S62C+Y97P+H98V,no signal,0/3
L30Y+S58W+S62K,no signal,0/3
S62D,18 nM,3/3
E61M+S62K+Q96T,39 nM,3/3
K24N+S26D+S62Q,8.7 nM,3/3
S33K+R60P+S62G,8.1 µM,1/3
K36H+N37L+S62I,780 nM,2/3
E32T+S62Q+H98C,no signal,0/3
S28N+V39A+S62P,250 µM,2/3
Y31V+S62E,no signal,0/3
S62A+H98G,3.7 nM,3/3
S62K+H98D+L100G,250 µM,3/3
R34V+S62K+Q95I,no signal,0/3
K24E+K36Q+S62I,9.5 nM,3/3
A40E+W56V+S62K,22 µM,1/3
E32T+N37Q+S62V,21 nM,3/3
S26V+A40K+S62N,no signal,0/3
S62D+Y97W,1.3 µM,3/3
S58I+S62C+P101M,no signal,0/3
R60L+S62T+Q96V,130 µM,1/3
V29D+S62G,5.8 nM,3/3
Y31Q+S62I+R99V,32 nM,3/3
S25A+S62A+P101E,66 nM,3/3
E32L+N35S+S62V,150 nM,3/3
V39H+S62H+Q96K,5.1 µM,2/3
Q27D+E61T+S62H,63 nM,3/3

The first 9 variants above that were never detected:

changes,Kd,replicates with signal
N37I+S62P+Q96W,no signal,0/3
S62T+L100A+L102V,no signal,0/3
L30G+S62N+R99H,no signal,0/3
S33M+S62K+Q96A,no signal,0/3
S25I+S58C+S62L,no signal,0/3
S62C+Y97P+H98V,no signal,0/3
L30Y+S58W+S62K,no signal,0/3
E32T+S62Q+H98C,no signal,0/3
Y31V+S62E,no signal,0/3

Data: MIT Lincoln Laboratory AlphaSeq set, Engelhart et al. 2022, doi:10.1038/s41597-022-01779-4, as distributed in FLAb.